# Screening data from PubChem.
# An excerpt weighted towards active compounds, which were near 2.1% of everything screened.
# NR1D1 modulator: Rev-erb alpha (human) modulation; Rev-erbα–FITC-DNA binding, fluorescence polarization, 90 min; activity, % at 10 µM; 370,000 compounds, 0.79% hits; AID 1259318; P20393;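 active = activity above about 14%, limit read from the data; passing the limit was not always enough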;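 note: 0% = DMSO wells with 35 nM protein and 100% = DMSO wells with 750 nM protein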
# Yeast UUG start-1: modulators of start codon recognition fidelity in yeast; AID 602363; activity score, % at 18.7 µM; S. cerevisiae UUG-firefly luciferase reporter, luminescence/redox ratio; 0.13% of 350,000 active;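 active = replicate mean at a twofold rise or more, about +100% in these data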;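 note: firefly luciferase made from a UUG start codon reports start codon fidelity; reporter light over untreated wells divided by growth signal over untreated wells; some hits fall short of that in this replicate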
# GSIS activator: primary screen for activators of insulin secretion dependent on glucose, INS-1E cells, GLuc reporter luminescence. INS-1E GLuc reporter insulin secretion, 2-3 h. activation, % at 16.6 µM. 370,000 compounds, 0.61% hits. AID 743287;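 active = lowest replicate activation of at least 40%, so every replicate reaches that level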;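 note: 0% = median of neutral control wells and 100% = median of IBMX positive control wells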
# ERp5 block: blocks human ERp5 reductase activity on insulin | Q15084 | ERp5 insulin aggregation, absorbance 650 nm, 90 min | inhibition, % at 9.99 µM | 350,000 compounds, 0.05% hits | AID 651711;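 active = mean replicate inhibition above about 25%, with every replicate also reaching it, limit read from the data, passing the limit was not always enough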
# PDI inh: inhibitors of human protein disulfide isomerase; AID 588391; P07237; 350,000 compounds, 0.052% hits; inhibition, % at 10 µM; PDI insulin aggregation turbidity, A650, 90 min;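 active = mean inhibition across replicates of 30% or more, whatever share of single replicates reach that level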
# SMARCA2 activ: activators of SMARCA2 function | MG213 cells, MMTV-luciferase reporter, dexamethasone, overnight | activation, % at 9.1 µM | 370,000 compounds, 1% hits; in the data active = activation above about 7.8%;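 note: 0% = vehicle wells and 100% = reference activator wells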
# Yeast UUG start-2: modulators of start codon recognition fidelity in yeast; shares compounds with Yeast UUG start-1; 540 tested, under 10 active; activation, % at 38 µM; S. cerevisiae UUG-start firefly luciferase, luminescence, 4 h; 100% means double the DMSO signal;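 active = signal increase whose fitted curve reaches an absolute level of 40 at a concentration under 10 µM; inactive = activity opposite to the expected increase, or the rest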
# Active calls of the source: *; nt = no result.
Yeast UUG start-1	ERp5 block	NR1D1 modulator	SMARCA2 activ	canonical_smiles	Yeast UUG start-2	GSIS activator	PDI inh
1.3	0.8	nt	nt	C[C@@H]1CN([C@H](C)CO)C(=O)c2cc(Br)cnc2O[C@@H]1CN(C)C(=O)c1ccccn1	nt	-0.5	nt
5.4	-4.2	nt	nt	COc1ccc(CN2C[C@H](C)[C@@H](OC)CN(C)C(=O)c3cc(NC(=O)c4nc5ccccc5s4)ccc3OC[C@@H]2C)cc1	nt	-12.0	nt
446.5*	23.4	2.8	-0.6	O=S(=O)(NC1=NCCCCC1)c1ccccc1Cl	-2.4	22.1	-2.4
nt	nt	7.3	-1.2	Cc1ccccc1S(=O)(=O)NC1=NCCCCC1	nt	19.0	2.1
23.0	2.0	nt	nt	C[C@H](CO)N1C[C@H](C)[C@H](CN(C)Cc2ccc(Oc3ccccc3)cc2)Oc2ccc(NC(=O)Nc3ccccc3)cc2C1=O	nt	-10.3	nt
-3.7	-6.6	3.8	-2.9	CCOc1ccccc1Nc1nc2ccccc2n1C(C)C	3.9	4.0	3.0
165.4*	0.8	-3.4	0.3	O=C(CN1C(=O)c2ccccc2S1(=O)=O)c1ccc(O)c(O)c1	-5.3	-11.3	3.9
-28.6	-4.0	-0.2	-0.9	O=C(CN1C(=O)c2ccccc2S1(=O)=O)c1ccc(F)c(F)c1	nt	-2.1	-0.7
-4.1	0.4	nt	nt	C[C@@H]1CN([C@H](C)CO)C(=O)c2cc(NC(=O)CCCN(C)C)ccc2O[C@@H](C)CCCCO[C@@H]1CN(C)S(C)(=O)=O	nt	2.5	nt
nt	0.8	-0.7	-4.0	NC(=O)C[N+]1(CC#CC(O)(c2ccccc2)c2ccccc2)CCCC1	-3.7	3.1	-8.4
-1.5	3.1	nt	nt	CCCNC(=O)N(C)C[C@@H]1Oc2ncc(-c3ccc(OC)cc3)cc2C(=O)N([C@@H](C)CO)C[C@H]1C	nt	1.9	nt
nt	nt	-3.4	7.5	O=C(Nc1cnc2ccccc2c1)N1CCCCC1	nt	nt	4.5
105.5*	nt	-0.5	7.2	O=C(Nc1cnc2ccccc2c1)N1CCOCC1	6.8	nt	0.3
-9.9	-6.3	nt	nt	C[C@@H]1CN([C@@H](C)CO)C(=O)c2cc(-c3ccccc3)cnc2O[C@H]1CN(C)C(=O)Cc1cccnc1	nt	3.9	nt
-13.5	2.7	0.3	-0.6	COc1ccc(OCc2nnc(SCC(=O)NC3CC3)n2C)cc1	nt	15.3	-3.8
348.9*	-1.2	1.0	-2.4	COc1ccc(C(=O)NCc2nnc(SCC(=O)NC3CCCCC3)n2C)cc1	-5.9	13.1	10.0
-14.9	nt	4.1	1.8	CCCCCCn1c(SCCN2CCOCC2)nc2c1c(=O)[nH]c(=O)n2C	nt	nt	6.8
360.6*	nt	2.4	-2.7	CCCCCn1c(SCCN2CCOCC2)nc2c1c(=O)[nH]c(=O)n2C	-8.5	nt	-30.9
12.4	3.2	nt	nt	CC(C)C#Cc1cnc2c(c1)C(=O)N([C@@H](C)CO)C[C@H](C)[C@H](CN(C)C(=O)Nc1ccccc1)O2	nt	24.5	nt
-2.9	11.8	13.5	-0.3	COc1ccc2oc(C(=O)OCC(=O)NC(C)c3ccccc3)c(C)c2c1 (stereo not drawn)	11.2	16.5	-1.3
-3.2	3.3	0.5	-1.2	COc1ccc2oc(C(=O)OCC(=O)NCc3ccc(OC)c(OC)c3)c(C)c2c1	6.2	7.0	-3.8
-15.1	2.9	3.7	-1.5	CCOc1ccc2oc(C(=O)OCC(=O)NCc3ccc(OC)cc3)c(C)c2c1	nt	5.2	-11.8
11.5	-0.5	-0.6	-2.3	COc1ccc2oc(C(=O)OCC(=O)N(C)Cc3ccccc3)c(C)c2c1	10.4	-4.1	4.9
13.3	-6.0	nt	nt	C[C@H]1CCCCO[C@H](CN(C)Cc2ccc(C(F)(F)F)cc2)[C@@H](C)CN([C@@H](C)CO)C(=O)c2cc(NS(=O)(=O)c3ccc(Cl)cc3)ccc2O1	nt	-19.0	nt
-12.4	-1.0	nt	nt	C[C@@H]1CN([C@H](C)CO)C(=O)c2cc(NC(=O)c3ccccc3)ccc2O[C@@H](C)CCCCO[C@H]1CN(C)S(=O)(=O)c1ccc(Cl)cc1	nt	-8.9	nt

# Fetched by compound from above (four):
Yeast UUG start-1	ERp5 block	NR1D1 modulator	SMARCA2 activ	canonical_smiles	Yeast UUG start-2	GSIS activator	PDI inh
-9.9	-6.3	nt	nt	C[C@@H]1CN([C@@H](C)CO)C(=O)c2cc(-c3ccccc3)cnc2O[C@H]1CN(C)C(=O)Cc1cccnc1	nt	3.9	nt
nt	nt	7.3	-1.2	Cc1ccccc1S(=O)(=O)NC1=NCCCCC1	nt	19.0	2.1
nt	0.8	-0.7	-4.0	NC(=O)C[N+]1(CC#CC(O)(c2ccccc2)c2ccccc2)CCCC1	-3.7	3.1	-8.4
-3.2	3.3	0.5	-1.2	COc1ccc2oc(C(=O)OCC(=O)NCc3ccc(OC)c(OC)c3)c(C)c2c1	6.2	7.0	-3.8

# Next section.
Yeast UUG start-1	ERp5 block	NR1D1 modulator	SMARCA2 activ	canonical_smiles	Yeast UUG start-2	GSIS activator	PDI inh
2.5	13.3	nt	nt	Cc1ccc(-c2ccc3c(c2)O[C@@H](CN(C)Cc2cccnc2)[C@H](C)CN([C@H](C)CO)S3(=O)=O)cc1	nt	-26.7	nt
167.3*	-0.8	3.8	-2.1	O=C1COc2ccccc2N1Cc1ccc(Cl)cc1	3.6	nt	-0.2
nt	2.1	nt	nt	CN(C)C(=O)C[C@H]1C[C@@H]2c3cc(NC(=O)CC4CC4)ccc3O[C@@H]2[C@H](CO)O1	nt	6.3	nt
4.9	4.8	-2.9	-1.9	O=C(Nc1ccccc1C(F)(F)F)c1ccsc1	nt	-4.2	-0.4
